Measurements as given in ChEMBL document CHEMBL1641485, “Chromone 3-phenylcarboxamides as potent and selective MAO-B inhibitors” (Bioorg Med Chem Lett, 2011).

Organism: Homo sapiens
Test: Selectivity ratio of IC50 for human recombinant MAOA to IC50 for human recombinant MAOB

Ratio IC50: > 2080
SMILES: O=C(O)c1coc2ccccc2c1=O
